Screening results deposited in PubChem BioAssay by Broad Institute.
Yeast UUG start – alters start codon recognition fidelity in yeast. S. cerevisiae UUG-firefly luciferase reporter, luminescence/redox ratio. AID 602363. activity score, % at 18.7 µM. hit rate 0.13% among 350,000;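 active = replicate mean at a twofold rise or more, about +100% in these data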;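 note: firefly luciferase made from a UUG start codon reports start codon fidelity; reporter light over untreated wells divided by growth signal over untreated wells; some hits fall short of that in this replicate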
MITF TRPM1 HTS – activators of MITF-driven TRPM1 promoter reporter, primary screen, cell-based, SK-MEL-5, luciferase, single point. SK-MEL-5 TRPM1-promoter luciferase, 24 h; % of positive control, neutral wells = 0. 300,000 compounds, 0.75% hits. AID 588334, 2011. activation, % at 12.5 µM;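 active means mean activation of at least 80% with every replicate also reaching 80%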;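 further: 0% = neutral control wells and 100% = parthenolide positive control wells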
Wnt act – Wnt/beta-catenin pathway activators, primary screen, cell-based, plate reader, single point | Wnt/beta-catenin reporter cell assay, activator | activation, % at 9.35 µM | 300,000 compounds, 1.2% hits | AID 743398, 2014; in the data active means activation above about 30%, passing the limit was not always enough;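 further: 0% = neutral control wells and 100% = positive control wells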
MITF TRPM1 inh – inhibitors of MITF-dependent TRPM1 promoter reporter, primary screen, cell-based, SK-MEL-5, single point, luciferase. inhibition, % at 12.5 µM. SK-MEL-5 TRPM1 promoter luciferase, 24 h. 330,000 compounds, 0.83% hits;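 active means mean inhibition across replicates of 60% or more, whatever share of single replicates reaches that level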
miR122 inh – miR-122 Renilla sensor signal increase in Huh7, primary screen, miR-122 inhibitor project, cell-based, single point, plate reader; 340,000 compounds, 0.3% hits; Huh7 miR-122 Renilla luciferase sensor, 48 h; neutral wells = 0, positive control = 100; activation (reporter increase), % at 12.5 µM;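 active means mean replicate activation score at least 90 and every replicate individually at or above 90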;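 further: higher luciferase means less miR-122 activity so hits act as miR-122 inhibitors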
PGC1a acetyl inh – inhibitors of PGC1a acetylation signal, primary screen, cell-based, U2OS, AlphaScreen, inhibitor mode; AlphaScreen anti-acetyl-lysine; with virally co-expressed GCN5 acetyltransferase; inhibition, % at 15.6 µM; 350,000 compounds, 0.17% hits;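 active means every replicate shows inhibition of at least 40%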;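 further: 0% = neutral control wells and 100% = positive control wells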
Active calls of the source: *; / = no result; [ ] = dose if it differs, or a comment. Most compounds without a hit are left out; they make up all but 2.1% or so of the library.

| item | Yeast UUG start | MITF TRPM1 HTS | Wnt act | MITF TRPM1 inh | miR122 inh | PGC1a acetyl inh | Molecule |
| --- | --- | --- | --- | --- | --- | --- | --- |
| 1 | 5 | / | / | / | 115*[16.7 µM] | / | C[C@@H]1CN([C@@H](C)CO)C(=O)c2cccc(NC(=O)Nc3ccccc3)c2O[C@H]1CN(C)Cc1ccc(C(F)(F)F)cc1 |
| 2 | 5 | / | / | / | 8[16.7 µM] | 5 | C[C@@H]1CN([C@@H](C)CO)C(=O)c2cccc(NC(=O)NC3CCCCC3)c2O[C@@H]1CN(C)Cc1ccc(C(F)(F)F)cc1 |
| 3 | 4 | / | / | / | 8[16.7 µM] | -8 | C[C@@H]1CN([C@H](C)CO)S(=O)(=O)c2ccc(-c3ccccc3F)cc2O[C@H]1CN(C)C(=O)C1CC1 |
| 4 | / | / | / | / | / | -3 | C[C@@H]1CN([C@@H](C)CO)C(=O)c2cccc(NC(=O)CCCCCC(=O)Nc3ccccc3N)c2O[C@@H]1CN(C)C(=O)Nc1ccc2c(c1)OCO2 |
| 5 | 14 | / | / | / | -2[16.7 µM] | -13 | COc1cccc(C#Cc2cnc3c(c2)C(=O)N([C@H](C)CO)C[C@H](C)[C@@H](CN(C)C(=O)C2CCOCC2)O3)c1 |
| 6 | / | 4 | -1 | -3 | / | / | Cc1cc(OCCn2cnc3ccccc3c2=O)ccc1[N+](=O)[O-] |
| 7 | / | 61 | 41* | -62 | -12 | -1 | Cc1ccc(OCCn2cnc3ccccc3c2=O)c([N+](=O)[O-])c1 |
| 8 | 26 | / | / | / | -2[16.7 µM] | -5 | C[C@@H]1CCCCO[C@H](CN(C)C(=O)Nc2ccc(F)cc2)[C@H](C)CN([C@H](C)CO)C(=O)c2cc(NS(C)(=O)=O)ccc2O1 |
| 9 | -25 | / | 35* | / | -1 | -4 | O=C(O)c1cccc(-c2csc(C(O)c3ccccc3)n2)c1 (stereo not given) |
| 10 | 1 | / | 2 | / | -4 | -13 | NC(=O)c1cccc(-c2csc(C(O)c3ccccc3)n2)c1 (stereo not given) |
| 11 | 7 | / | / | / | 3[16.7 µM] | -1 | C[C@@H]1CN([C@H](C)CO)C(=O)c2cc(NC(=O)CCCN(C)C)ccc2O[C@@H](C)CCCCO[C@@H]1CN(C)C(=O)NC1CCCCC1 |
| 12 | / | 122* | 41* | -114 | / | / | COc1ccc(-c2cc(-c3ccc(Cl)cc3)n[nH]2)c(O)c1 |
| 13 | -6 | 100* | 27 | -107 | 0 | -9 | COc1ccc(-c2cc(-c3cc(F)ccc3O)[nH]n2)cc1OC |
| 14 | 0 | / | / | -31 | 12 | -7 | COc1ccc(-c2cc(-c3cc(OC)ccc3O)[nH]n2)cc1 |
| 15 | -29 | / | 48* | / | -3 | 3 | O=C(Nc1ccc2ccccc2n1)C1CCCCC1 |
| 16 | -43 | 5 | 8 | -5 | -3 | 5 | O=C(Nc1ccc2ccccc2c1)c1ccccc1O |
| 17 | -31 | -7 | 0 | 7 | -6 | 9 | COc1ccc(C(=O)Nc2ccc3ccccc3n2)c(OC)c1OC |
| 18 | -9 | -13 | / | 12 | 3 | 5 | O=C(Nc1ccccc1)C1CCCCC1 |
| 19 | -36 | 57 | 36* | -74 | -4 | 5 | O=C(Nc1ccc2ccccc2n1)c1ccccc1Cl |
| 20 | -5 | 64 | 44* | -64 | / | 5 | O=C(Nc1ccc2ccccc2n1)c1ccc(Cl)cc1 |

Whole records from above:
Record of O=C(Nc1ccc2ccccc2c1)c1ccccc1O : Yeast UUG start: -43; MITF TRPM1 HTS: 5; Wnt act: 8; MITF TRPM1 inh: -5; miR122 inh: -3; PGC1a acetyl inh: 5
Record of COc1ccc(-c2cc(-c3cc(F)ccc3O)[nH]n2)cc1OC : Yeast UUG start: -6; MITF TRPM1 HTS: 100*; Wnt act: 27; MITF TRPM1 inh: -107; miR122 inh: 0; PGC1a acetyl inh: -9

Continued:
| item | Yeast UUG start | MITF TRPM1 HTS | Wnt act | MITF TRPM1 inh | miR122 inh | PGC1a acetyl inh | Molecule |
| --- | --- | --- | --- | --- | --- | --- | --- |
| 21 | -16 | / | 44* | / | -5 | 7 | O=C(Nc1ccc2ccccc2c1)c1ccccc1Cl |
| 22 | -2 | / | / | / | / | -9 | COc1ccc([Si](C)(C)[C@@H]2[C@@H](CCO)O[C@]3(C(=O)N4c5c(cc(OC)cc53)C(C)=CC4(C)C)[C@H]2C)cc1 |
| 23 | / | / | / | / | / | 0 | COc1ccc2c3c([nH]c2c1)[C@H](CO)N(C(=O)c1ccccc1)CC31CCN(C(=O)Nc2cccc(F)c2)CC1 |
| 24 | -12 | / | / | / | -1[16.7 µM] | 7 | C[C@@H]1CN([C@@H](C)CO)C(=O)Cc2cc(NC(=O)CCCN(C)C)ccc2O[C@@H]1CN(C)S(=O)(=O)c1ccccc1 |
| 25 | -5 | / | / | / | -1[16.7 µM] | 0 | C[C@H]1CN([C@@H](C)CO)C(=O)c2cc(NC(=O)c3ccncc3)ccc2O[C@@H]1CN(C)Cc1ccc(C(=O)O)cc1 |
| 26 | 10 | / | / | / | / | 2 | CO[C@@H]1CN(C)C(=O)c2ccc(NC(=O)C3CCCC3)cc2OC[C@H](C)N(C(C)=O)C[C@@H]1C |
| 27 | -2 | / | / | / | -2[16.7 µM] | 7 | C[C@H](O)C#Cc1ccc2c(c1)O[C@H](CN(C)C(=O)c1ccccc1)[C@@H](C)CN([C@H](C)CO)S2(=O)=O |
| 28 | / | 121* | / | -118 | / | / | O=C(Nc1ccc(N=Nc2ccccc2)cc1)c1ccccc1Cl |
